The source of these data is patent US20250144104A1, “DISCOVERY OF A NEW INHIBITOR FOR THE YTH DOMAIN-CONTAINING M6A RNA READERS” (The Trustees of Boston College, priority 2023, published 2025).

The structures appear in SMILES notation.

The target of this experiment is T1, YTH^YTHDC1 (Homo sapiens, UniProt Q96MU7).
T1 construct: YTHDC1 (amino acids 345-509); His-tag (N); made in house; host or cells: E. coli BL21(DE3)
The experiment can be described thus: Competitive RNA electrophoretic mobility shift assay (REMSA), YTHDC1. The class given is binding. Particulars: 25 nM FAM-m^6A-RNA, N-7 1-200 μM; read-out: IC50, REMSA against YTH^YTHDC1. On the procedure:
Competitive REMSA was performed by incubating 20 nM YTH^YTHDF1 or YTH^YTHDC1 with various concentrations of N-7 (1-200 μM) and 25 nM FAM-m^6A-RNA in a buffer containing 10 mM HEPES, 50 mM KCl, 1 mM EDTA, 0.05% Triton-X-100, 5% glycerol and RNase inhibitor, in a final volume of 20 μL. The reaction mixture was incubated at room temperature for 20 minutes, and then loaded onto an 8% polyacrylamide gel containing 0.2% glycerol. Electrophoresis was performed in 0.5×TBE buffer at 90 V and 4° C. for 60 minutes. FAM-m^6A-RNA was detected using the ChemiDoc™ MP imaging system (BIO-RAD) with the fluorescence blotting module.

For orientation: IC50 means the concentration that inhibits the measured activity by half. In the case of `O=C1CC2(CCN(c3ncnc4c3ncn4C3CC(CO)(CO)C3)C2)CN1` (stereo not shown) [N-7], the IC50 came to 30 ± 2 µM.
